Laboratory results from EP2096114A1, “Insecticidal Derivates of Substituted Phosphorylated Phenylalkyl Iminooxazolines and Iminothiazolines” (dated 2009).

Key:
Myzus persicae [1] = experiment: Myzus persicae - test (spray application); conditions: application rate of 20 g/ha; spray application on Chinese cabbage leaf-disks; all instars
Aphis gossypii [2] = experiment: Aphis gossypii - test (cotton leaves sprayed); conditions: application rate of 20 ppm; cotton leaves (Gossypium hirsutum) sprayed
Myzus persicae [3] = experiment: Myzus persicae - test (cabbage plants drenched); conditions: application rate of 20 ppm; cabbage plants (Brassica oleracea) drenched
Aphis gossypii [4] = experiment: Aphis gossypii - test (cotton plants drenched); conditions: application rate of 20 ppm; cotton plants (Gossypium hirsutum) drenched

Measured: mortality in %

CCCSP(=S)(OCC)N1CCOC1=NC(C)c1cc(F)cc(F)c1 (stereo not shown)
≥ 80%: Myzus persicae [1] | Aphis gossypii [2] | Myzus persicae [3]

CCCSP(=S)(OCC)N1CCOC1=NC(C)c1cccc(F)c1 (stereo not shown)
≥ 80%: all assays above
